From BindingDB's records for doi:10.1016/s0028-3908(97)00049-x (Roche Bioscience, 1997)

Chains of the proteins cited; added tags and fusions are not shown. Lines headed by an entry give the natural chain unless they say otherwise; changes in a name come on top.
UniProt P14842, whole entry: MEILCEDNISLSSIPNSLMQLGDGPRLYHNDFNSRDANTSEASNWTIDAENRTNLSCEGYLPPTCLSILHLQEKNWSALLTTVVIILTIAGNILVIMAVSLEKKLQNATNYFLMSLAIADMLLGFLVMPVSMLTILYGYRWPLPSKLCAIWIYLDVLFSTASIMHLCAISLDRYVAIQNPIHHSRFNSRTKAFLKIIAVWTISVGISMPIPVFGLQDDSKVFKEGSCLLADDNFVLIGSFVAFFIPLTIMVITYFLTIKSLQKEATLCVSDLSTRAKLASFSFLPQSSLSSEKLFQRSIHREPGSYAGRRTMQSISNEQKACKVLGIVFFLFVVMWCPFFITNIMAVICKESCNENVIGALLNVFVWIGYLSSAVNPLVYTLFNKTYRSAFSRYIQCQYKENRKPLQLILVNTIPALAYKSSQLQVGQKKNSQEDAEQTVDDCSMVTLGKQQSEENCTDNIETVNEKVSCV
UniProt P41595, whole entry: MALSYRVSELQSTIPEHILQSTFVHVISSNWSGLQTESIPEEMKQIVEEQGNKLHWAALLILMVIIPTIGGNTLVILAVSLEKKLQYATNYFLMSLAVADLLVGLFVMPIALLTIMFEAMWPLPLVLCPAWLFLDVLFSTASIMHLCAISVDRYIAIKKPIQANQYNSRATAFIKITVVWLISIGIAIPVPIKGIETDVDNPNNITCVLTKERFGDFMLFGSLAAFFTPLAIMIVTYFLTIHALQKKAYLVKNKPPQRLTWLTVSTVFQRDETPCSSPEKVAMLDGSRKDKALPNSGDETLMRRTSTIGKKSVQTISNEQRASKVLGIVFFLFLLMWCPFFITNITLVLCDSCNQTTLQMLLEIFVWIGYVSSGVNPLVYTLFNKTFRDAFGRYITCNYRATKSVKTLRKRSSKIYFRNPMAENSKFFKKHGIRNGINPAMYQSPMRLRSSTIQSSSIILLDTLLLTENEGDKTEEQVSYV
UniProt P28335: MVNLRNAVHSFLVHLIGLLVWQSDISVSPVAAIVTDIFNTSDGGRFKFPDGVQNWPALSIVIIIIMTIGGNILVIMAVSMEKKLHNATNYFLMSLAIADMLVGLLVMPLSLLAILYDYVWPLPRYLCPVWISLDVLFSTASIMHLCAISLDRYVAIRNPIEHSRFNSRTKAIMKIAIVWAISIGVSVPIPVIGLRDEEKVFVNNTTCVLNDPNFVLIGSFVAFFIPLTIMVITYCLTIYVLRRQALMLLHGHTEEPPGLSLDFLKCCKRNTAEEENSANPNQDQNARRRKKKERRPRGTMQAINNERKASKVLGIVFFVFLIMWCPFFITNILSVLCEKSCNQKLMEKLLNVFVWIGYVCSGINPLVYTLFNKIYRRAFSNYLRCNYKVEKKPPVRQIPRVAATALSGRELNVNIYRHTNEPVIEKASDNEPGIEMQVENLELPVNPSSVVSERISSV
UniProt P28223, whole entry: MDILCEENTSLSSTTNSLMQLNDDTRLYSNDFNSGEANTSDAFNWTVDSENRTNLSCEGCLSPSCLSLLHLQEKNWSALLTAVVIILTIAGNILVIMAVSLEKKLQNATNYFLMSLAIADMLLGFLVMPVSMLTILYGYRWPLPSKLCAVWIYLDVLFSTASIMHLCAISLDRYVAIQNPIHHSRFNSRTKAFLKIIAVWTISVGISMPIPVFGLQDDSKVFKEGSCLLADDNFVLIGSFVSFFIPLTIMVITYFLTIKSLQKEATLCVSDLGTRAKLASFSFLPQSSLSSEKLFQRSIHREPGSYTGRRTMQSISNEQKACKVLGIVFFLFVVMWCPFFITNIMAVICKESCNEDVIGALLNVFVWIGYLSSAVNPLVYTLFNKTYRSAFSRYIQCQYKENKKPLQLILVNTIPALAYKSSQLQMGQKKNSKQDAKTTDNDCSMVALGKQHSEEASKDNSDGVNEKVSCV

Tests used:
[1] = molecular target: 5-hydroxytryptamine receptor 2A (Rattus norvegicus, UniProt P14842)
[2] = molecular target: T1, 5-hydroxytryptamine receptor 2C (Rattus norvegicus, UniProt P08909)
T1 sequence (P08909 whole entry): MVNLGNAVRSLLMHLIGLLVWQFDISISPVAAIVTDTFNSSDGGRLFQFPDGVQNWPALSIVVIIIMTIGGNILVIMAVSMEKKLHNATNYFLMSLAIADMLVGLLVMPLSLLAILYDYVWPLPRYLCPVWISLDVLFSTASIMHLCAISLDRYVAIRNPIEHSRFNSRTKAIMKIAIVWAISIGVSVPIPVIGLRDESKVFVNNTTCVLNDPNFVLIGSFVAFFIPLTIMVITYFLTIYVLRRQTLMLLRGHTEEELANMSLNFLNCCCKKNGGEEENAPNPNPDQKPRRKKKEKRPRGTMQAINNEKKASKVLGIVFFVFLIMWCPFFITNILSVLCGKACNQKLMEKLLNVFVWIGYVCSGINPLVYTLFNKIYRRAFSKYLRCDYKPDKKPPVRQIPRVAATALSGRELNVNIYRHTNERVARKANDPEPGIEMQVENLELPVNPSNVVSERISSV

[3] = molecular target: 5-hydroxytryptamine receptor 2B (Homo sapiens, UniProt P41595)
[4] = molecular target: 5-hydroxytryptamine receptor 2C (Homo sapiens, UniProt P28335)
[5] = molecular target: 5-hydroxytryptamine receptor 2A (Homo sapiens, UniProt P28223)

SMILES	Ki [1] [µM]	Ki [2] [µM]	Ki [3] [µM]	Ki [4] [µM]	Ki [5] [µM]
O=C(CCCN1CCC2(CC1)C(=O)NCN2c1ccccc1)c1ccc(F)cc1 [8-[4-(4-fluorophenyl)-4-oxidanylidene-butyl]-1-phenyl-1,3,8-triazaspiro[4.5]decan-4-one]	0.00042	0.871			
Clc1cccc(N2CCNCC2)c1 [mCPP]			0.0371	0.105	0.112
CSc1ccc2c(c1)C(N1CCN(C)CC1)Cc1ccccc1S2 (stereo not drawn) [methanesulfonic acid;1-methyl-4-(3-methylsulfanyl-5,6-dihydrobenzo[b][1]benzothiepin-5-yl)piperazine]			0.00154		
COc1ccc2[nH]cc(CCN)c2c1 [tryptamine, 5-Methoxy]	0.141	0.0631			
